Apparent affinities of Ab-14 variants for a coronavirus HR2 peptide

Source: Li et al. 2023 (doi:10.1038/s41467-023-39022-2), MIT Lincoln Laboratory and A-Alpha Bio; data file from the FLAb repository.

All variants were tested on one target, the spike HR2 peptide PDVDLGDISGINAS (SARS-CoV-2).

Parent scFv Ab-14: VH joined to VL by a (GGGGS)3 linker. Changes lie in the heavy chain CDRs alone.
VH: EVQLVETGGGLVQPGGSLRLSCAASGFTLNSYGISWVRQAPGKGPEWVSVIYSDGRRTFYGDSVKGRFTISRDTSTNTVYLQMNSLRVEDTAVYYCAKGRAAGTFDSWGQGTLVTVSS
VL: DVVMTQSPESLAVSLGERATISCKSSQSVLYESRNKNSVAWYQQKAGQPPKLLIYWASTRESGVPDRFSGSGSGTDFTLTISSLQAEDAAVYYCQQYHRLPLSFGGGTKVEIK

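Designed CDR sequences, proposed from the first random library and measured here. Several design methods are mixed in this list. The assay is AlphaSeq: two haploid yeast populations carry antibody and antigen on their surface. Mating (16 h, 30 °C) was followed by selection of diploids and sequencing of their barcodes. Each replicate has its own calibration line, from reference interactions of the BCL2 family. Each pool was mated in six replicate cultures.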

Each variant is given by its three heavy chain CDRs, as the data file delimits them; those of the parent are GFTLNSYGIS, VIYSDGRRTFYGDSVK, GRAAGTFDS. Each Kd is an estimate from the mating assay, the geometric mean of the replicates in which the pair was seen; lower is stronger. Where no diploid with the target was found in any replicate, the entry reads "no signal": below detection, most likely a poor binder, though not proof of it. Some sequences occur more than once in the pool; their replicates are pooled. The parent sequence was in this pool as ten entries: three were never detected, three once, and four in most replicates, with averages from 2.2 nM to 240 nM. Three control strains display no target. For all heavy chain designs, 1% of the pairings with them gave a signal, with a median of 120 nM and one signal in twenty below 7.0 nM, so weak values seen in few replicates may be background. The authors' rule: three or more of the six replicates give a measured affinity, fewer mean a poor binder. Values of this round are not directly comparable with the first-round values of the same sequences.

CDR-H1,CDR-H2,CDR-H3,apparent Kd,detected
GFELNSYGIS,VIYSDGRRTFYGDSVK,GRTAGTFDK,3.0 nM,3 of 6
GFQLNEYGIS,VIYADGMRSEYQNSVK,GSNSSSFKV,150 nM,1 of 6
GFHLNSYGIS,VIYSDGRRTFYIDSVK,GHEAGTFDS,10 nM,6 of 6
GFTLNSYGIS,VIYSDGQRTFYGDSVK,GRAAGTFKS,12 nM,5 of 6
GFDLNEYGIS,VIYADGVRTFYADSVK,GNTAGTFDS,270 pM,6 of 6
GFTLNDYGIS,VIYSDGRRTQYIDSVK,GRAAGTFVV,no signal,0 of 6
GFTLNMYGIS,VIYSDGRRTFYGDSVK,GWAAGTFDS,no signal,0 of 6
GFDLNEYGIS,VIYADGVRTFYADSVK,GGNAGTFDV,660 pM,6 of 6
GFTLNEYGIS,VIYSDGRRTFYGDSVK,GSAAGTFNS,3.0 nM,6 of 6
GFDLDEYGIS,VIYADGVRTSYADSVK,GENAGTFDV,8.5 nM,6 of 6
GFELNNYGIS,VIYSDGRRTFYSDSVK,GKTAGTFDS,2.1 nM,6 of 6
GFDLNEYGIS,VIYADGMRTVYADSVK,GNQAGTFDI,650 pM,6 of 6
GFTLNSYGIS,VIYSDGLRTFYADSVK,GKVAGTFDS,18 nM,4 of 6
GFTLTSYGIS,VIYSDGQRTFFGDSVK,GKAAGAFDY,no signal,0 of 6
GFDLNEYGIS,VIYADGVRTAYADDVK,GEVAGTFDI,830 pM,6 of 6
GFDLGEYGIS,VIYADGVRTSYAQKVK,GKNGAISSV,no signal,0 of 6
GNDLQEYGIS,VIYADGQRVNAVSQVK,GEQAGTFNL,no signal,0 of 6
GFTLNEYGIS,VIYSDGRRTFYGDSVK,GRAAGTFDF,21 nM,6 of 6
GDGLKEYGIS,VIYADGMRESYVNDVK,GQKSGIFNL,no signal,0 of 6
GFDLNEYGIS,VIYADGVRTAYANSVK,GNVAGTFDV,150 pM,6 of 6
KFTLNSYGIS,VIYSDGRRTFYGDSVK,GQTAGTFDV,32 nM,1 of 6
GFDLEEYGIS,VIYADGRRTFYTDSVK,GEVAGTFDV,280 pM,6 of 6
GSTLNSYGIS,VIYSDGRRTFYDDSVK,GQLAGTFDS,59 nM,4 of 6
GFTLNEYGIS,VIYSDGRRTFYSDSVK,GRMAGTFDS,610 pM,6 of 6
GFDLNEYGIS,VIYADGVRTAYADSVK,GNVAGTFDA,270 pM,6 of 6
KFDLNSYGIS,VIYSDGRRTFYGDSVK,GRTAGTFDS,2.5 nM,6 of 6
GSDLEEYGIS,VIYADGVRTKYAQDVK,GGQVVTASL,no signal,0 of 6
GFTLNSYGIS,VIYADGRRTFYGDSVK,GRAAGTFDK,1.5 nM,12 of 12
GFTLNSYYIS,VIYSDGRRTFYGDSVK,GQAAGTFDS,no signal,0 of 6
GFCLNDYGIS,VIYSDGRRTYYGDSVK,GRQAGTFDS,1.4 µM,1 of 6
GFALNEYGIS,VIYSDGRRTFYGDSVK,GQAAGTFDS,5.9 nM,6 of 6
GFKLNSYGIS,VIYSDGRRTFYGDSVK,GREAGTFDS,no signal,0 of 6
GFSLNEYGIS,VIYSDGRRTFYSDSVK,GRAAGTFDS,390 pM,6 of 6
GFKLNSYGIS,VIYSDGRRTFYIDSVK,GRTAGTFDS,no signal,0 of 6
GFTLNSYGIS,HIYSDGRRTFYSDSVK,GRAAGTFDS,no signal,0 of 6
GFTLNSYGIS,VIESDGRRTFYGDSVK,GRTAGTFDS,19 nM,1 of 6
GFDLNEYGIS,VIYADGKRTAYIDSVK,GEAAGTFDL,540 pM,6 of 6
GFTIESYGIS,VIYSDGRRTFYGDSVK,GKAADTFDS,no signal,0 of 6
GFDLNEYGIS,VIYADGKRTFYTDSVK,GANAGTFDV,150 pM,6 of 6
GFTLDQYGIS,VIYSDGRRTFYSDSVK,GRQAGTFDS,430 pM,6 of 6
GFNLNSYGIS,VIYSDGIRTFYGDSVK,GRTAGTFDS,3.9 nM,6 of 6
GFTLNEYGIS,VIYSDGRRTFYDDSVK,GRFAGTFDT,12 nM,5 of 6
GFDLQEYGVS,VIYADGRRASYASKFK,GNHSGYFDK,no signal,0 of 6
GFGLNQYGIS,VIYSDGRRTFYSDSVK,GRAAGTFDS,6.8 nM,6 of 6
GFELNSYGIS,VIYADGRRTFYGDSVK,GRAAGTFDA,2.8 nM,6 of 6
GFDLNEYGIS,VIYADGMRTAYADKVK,GNNAGTFDQ,170 pM,6 of 6
GFNLDEYGVS,VIYADGKRCQYANTVK,GENAGFFML,no signal,0 of 6
GFQLNSYGIS,VIYSDGRRTFYADKVK,GRTAGTFDS,11 nM,5 of 6
GFTLQSYGIS,VIYADGRRTFYGDSVV,GQSAGTFDS,48 nM,5 of 6
GFSLNSYGIS,VIYSDGRRTFYGDSVK,GSEAGTFDN,35 nM,1 of 6
GFDLNEYGIS,VIYADGKRTAYSDSVK,GTNAGTFDM,910 pM,6 of 6
GDSLDEYGIS,VIYADGQRKAYMDTVK,GNGQGTLFD,no signal,0 of 6
GFHLNDYGIS,VIYSDGRRTFYGDSVK,GTAAGTFDS,no signal,0 of 6
GFWLNEYGIS,VIYSDGRRTFYGDSVK,GRTAGTFDG,440 nM,2 of 6
GFNLNSYGIS,VIYSDGRRTAYGDSVK,GRHAGTFDS,no signal,0 of 6
GFTLNQYGIS,VIYSDGKRTFYIDSVK,GRAAGTFDS,3.6 nM,2 of 6

Extract of 3 entries:

CDR-H1	CDR-H2	CDR-H3	apparent Kd	detected
GSDLEEYGIS	VIYADGVRTKYAQDVK	GGQVVTASL	no signal	0 of 6
GFHLNDYGIS	VIYSDGRRTFYGDSVK	GTAAGTFDS	no signal	0 of 6
GFTLNSYGIS	VIYADGRRTFYGDSVK	GRAAGTFDK	1.5 nM	12 of 12